Assay results as given in patent US8932558B2, “Multi-subunit biological complexes for treatment of plaque-associated diseases” (Plaxgen Inc, priority 2007, dated 2015).

Test system: CP aggregates
Assay: Binding of proteins with calcium containing aggregates
Settings: 2 μg protein, 37° C., 1 hr
Experimental: The Proteins used for binding with the aggregates are diluted first in the PBS to make 1 mg/ml concentration and then stored at −20° C. as 50 μl aliquots. These samples are then thawed on ice and centrifuged (10,000 rpm, 10 min, 4° C.) to remove any precipitation and the supernatant containing only the soluble proteins are used for binding studies. To start with, for identification of proteins binding with calcium containing aggregates, a number of proteins are screened individually with the aggregates. Binding experiment is performed in 100 μl reaction (50 μl PBS buffer and 50 μl of individual aggregates) containing 2 μg of protein and the mixtures are incubated at 37° C. for 1 hr. For control experiments, protein (2 μg) is mixed in 100 μl PBS without aggregates. After the binding, the mixture is centrifuged (2500 rpm, 2 min, 20° C.) and the pellet is washed four times with 200 μl PBST (Tween 20, 0.05%). After each wash the supernatant is discarded and the complexes are transferred to a new microfuge tube to avoid any carry-over of the proteins. […] Finally, the solublized samples are used for protein quantitation using protein estimation kit (Pierce, Ill.) and the data are used in the Microsoft Excel program to generate Graph 1 (FIG. 4). […]

HSA: human serum albumin
Binding with the CP aggregates: detectable binding
